From patent US11096891B2, “Hybrid muco-adhesive delivery systems and use thereof” (TECHNION RESEARCH & DEVELOPMENT FOUNDATION LIMITED, priority 2016, dated 2021)

System: CAL-27 cells
Assay: Flow cytometry of fluorescently labeled Cetuximab binding
Type: cell-based, human
Settings: 1 μg/ml and 0.5 μg/ml antibody
Source text: In order to examine the affinity of the Cetuximab to human tongue squamous cell carcinoma CAL-27 cells, the commercial antibody and its isotype control IgG antibody was fluorescently labeled.
To optimize the amount of antibody required, staining of CAL-27 cells with decreasing antibody concentration was examined using cell cytometry (FIG. 22A).
Next, the difference in antibody binding to normal human dermal fibroblasts (NHDF) versus cancer cells (CAL-27) was examined (FIG. 22B-D). The same concentrations of isotype control antibody were used.
To examine the ability to deliver liposomes loaded with antibodies and to test the antibody affinity, CAL-27 cells were treated with Cetuximab loaded liposomes in comparison to IgG isotype control loaded liposomes and to free antibody (FIG. 22E). […] Liposomal delivery of proteins into cancer cells and to cancer cell membrane.

## Cetuximab: monoclonal antibody that targets the epidermal growth factor receptor (EGFR)
  Fluorescence intensity of antibody binding, cancer cells versus NHDF: significantly higher than for NHDF
